# Experimental data from paper PMC8958505, “Discovery of Potential Neuroprotective Agents against Paclitaxel-Induced Peripheral Neuropathy” (Journal of Medicinal Chemistry, 2022).
# Where a name gives a salt, the structure may show the parent alone.
# Assays:
# Transporter, GABA = Transporter, GABA (Rattus norvegicus, UniProt P23978); assay: LeadProfilingScreen: Transporter, GABA; assay type: binding
# hERG [1] = target: T1, hERG (Homo sapiens, UniProt Q12809); assay: hERG patch-clamp assay (hERG-CHO, automated patch-clamp); assay type: cell-based; design: host or cells: CHO (hERG-CHO)
# Description: CN016 were tested in the hERG (hERG-CHO, automated patch-clamp) assay and determined at Eurofins Panlabs (Missouri, USA). The experiment was accepted in accordance with Eurofins validation Standard Operating Procedure. The tested result […]
# Table S3. Result of hERG patch-clamp assay of CN016
# Opiate δ1 (OP1, DOP) = Opiate δ1 (OP1, DOP) (Homo sapiens, UniProt P41143); assay: LeadProfilingScreen: Opiate δ1 (OP1, DOP); assay type: binding
# [2] = target: Serotonin (5-Hydroxytryptamine) 5-HT1A (Homo sapiens, UniProt P08908); assay: LeadProfilingScreen: Serotonin 5-HT1A; assay type: binding
# Cannabinoid CB1 = Cannabinoid CB1 (Homo sapiens, UniProt P21554); assay: LeadProfilingScreen: Cannabinoid CB1; assay type: binding
# [3] = target: Leukotriene, Cysteinyl CysLT1 (Homo sapiens, UniProt Q9Y271); assay: LeadProfilingScreen: Leukotriene, Cysteinyl CysLT1; assay type: binding
# Sigma σ1 = Sigma σ1 (Homo sapiens, UniProt Q99720); assay: LeadProfilingScreen: Sigma σ1; assay type: binding
# Adrenergic α1D = Adrenergic α1D (Homo sapiens, UniProt P25100); assay: LeadProfilingScreen: Adrenergic α1D; assay type: binding
# Opiate µ (OP3, MOP) = Opiate µ (OP3, MOP) (Homo sapiens, UniProt P35372); assay: LeadProfilingScreen: Opiate µ (OP3, MOP); assay type: binding
# Adenosine A3 = Adenosine A3 (Homo sapiens, UniProt P0DMS8); assay: LeadProfilingScreen: Adenosine A3; assay type: binding
# Muscarinic M3 = Muscarinic M3 (Homo sapiens, UniProt P20309); assay: LeadProfilingScreen: Muscarinic M3; assay type: binding
# [4] = target: Epidermal Growth Factor (EGF) (Homo sapiens, UniProt P00533); assay: LeadProfilingScreen: Epidermal Growth Factor (EGF); assay type: binding
# [5] = system: paclitaxel-induced neuropathy in C57BL/6 mice; assay: Tail immersion test (thermal sensation) in paclitaxel-induced neuropathy; assay type: in vivo, mouse
# Description: (§1) Three behavioral models of paclitaxel-induced neuropathy were used to verify the neuroprotective effect of CN016. Namely, thermal and mechanical nociceptive reactions described below were evaluated by tail immersion and von Frey filament tests, respectively, and motor coordination was assessed with the rotarod performance test (Supporting Information, Figure S1A,B). To mimic the clinical therapeutic regimen, CN016 (5, 10 and 20 mg/kg) was administrated to 7-week-old female C57BL/6 mice by intraperitoneal injection (IP) 1 h prior to each injection of paclitaxel (4.5 mg/kg) on four alternate days (days 1, 3, 5, and 7). Each test’s basal level was recorded before treatment, and additional sessions of behavior tests were performed weekly for five weeks (Figure 4A).
# (§2) The baseline of every neurological behavior test was measured in 6-week-old C57BL/6J female mice prior to treatment. […] Mechanical hyperalgesia was evaluated by using von Frey filament (#2390, IITC Inc., USA), thermal sensitivity was determined by the tail immersion assay (water temperature: 48–49 °C), and motor coordination was assessed by rotarod (#7750, Ugo Basile Biological Research Apparatus, Italy). After the first drug implantation, the body weight was recorded every 6 days throughout the entire experiment.
# Muscarinic M2 = Muscarinic M2 (Homo sapiens, UniProt P08172); assay: LeadProfilingScreen: Muscarinic M2; assay type: binding
# Nicotinic Acetylcholine = assay: 67 off-target study: Nicotinic Acetylcholine (as named in Table S5); assay type: binding; details: 10 μM; item as named in Table S5
# hERG [6] = target: T1, hERG; assay: LeadProfilingScreen: Potassium Channel hERG; assay type: binding
# Androgen (Testosterone) = Androgen (Testosterone) (Homo sapiens, UniProt P10275); assay: LeadProfilingScreen: Androgen (Testosterone); assay type: binding
# [7] = system: GABAA, Flunitrazepam, Central; assay: LeadProfilingScreen: GABAA, Flunitrazepam, Central; assay type: binding, rat; details: 10 μM
# Opiate κ (OP2, KOP) = Opiate κ (OP2, KOP) (Homo sapiens, UniProt P41145); assay: LeadProfilingScreen: Opiate κ (OP2, KOP); assay type: binding
# C57BL/6 mice = assay: Rotarod performance test (motor coordination); assay type: in vivo, mouse; details: pretreated CN016 + paclitaxel
# Description: as §1, §2
# Histamine H3 = Histamine H3 (Homo sapiens, UniProt Q9Y5N1); assay: LeadProfilingScreen: Histamine H3; assay type: binding
# mice = assay: Hemodynamic monitoring (systolic pressure, heart rate) and body weight; assay type: in vivo, mouse
# Description: The baseline of every neurological behavior test was measured in 6-week-old C57BL/6J female mice prior to treatment. […] Three behavioral tests were performed on the same groups of animals once per week and no more than two behavioral tests on the same day. The first behavioral experiment was performed on the next day after the last course of treatment. Mechanical hyperalgesia was evaluated by using von Frey filament (#2390, IITC Inc., USA), thermal sensitivity was determined by the tail immersion assay (water temperature: 48–49 °C), and motor coordination was assessed by rotarod (#7750, Ugo Basile Biological Research Apparatus, Italy). After the first drug implantation, the body weight was recorded every 6 days throughout the entire experiment.
# Noninvasive automatized tail-cuff system (Visitech Systems, Apex, NC, USA) was used to measure the systolic pressure and the heart rate of conscious mice. All mice were placed in a constant temperature platform at least three times to adapt the system prior to hemodynamic measurement. The root of the tail was mounted on the occlusion and sensor cuff after the mouse was placed in a constant temperature platform. Each mouse was measured for at least 15 repetitions to obtain the mean of systolic pressure and heart rate. The hemodynamic change of each mouse was measured at five different time points.
# Muscarinic M1 = Muscarinic M1 (Homo sapiens, UniProt P11229); assay: LeadProfilingScreen: Muscarinic M1; assay type: binding
# Adenosine A2A = Adenosine A2A (Homo sapiens, UniProt P29274); assay: LeadProfilingScreen: Adenosine A2A; assay type: binding
# [8] = CN016 (5, 10 or 20 mg/kg) and paclitaxel (4.5 mg/kg)
structure (smiles),measurement,setting,value
"O=P(O)(O)CCN1CCC(Nc2cc(N3CCOCC3)nc(NCc3cn(CCCO)nn3)n2)CC1 [CN016, {2-[4-(2-{[1-(3-Hydroxy-propyl)-1H-[1,2,3]triazol-4-ylmethyl]-amino}-6-morpholin-4-yl-pyrimidin-4-ylamino)-piperidin-1-yl]-ethyl}-phosphonic Acid Hydrobromide Salt]",inhibition at 10 µM,"Transporter, GABA",2%
same,inhibition at 1 µM,"hERG [1]; human, CHO cells that express hERG (hERG-CHO), 1 μM",6%
same,inhibition at 10 µM,"hERG [1]; human, CHO cells that express hERG (hERG-CHO), 10 μM",19.1%
same,inhibition at 100 µM,"hERG [1]; human, CHO cells that express hERG (hERG-CHO), 100 μM",32.9%
same,hERG liability,"hERG [1]; up to 100 μM, patch-clamp",not observed
same,inhibition at 10 µM,"Opiate δ1 (OP1, DOP)",6%
same,inhibition at 10 µM,[2],2%
same,inhibition at 10 µM,Cannabinoid CB1,-5%
same,inhibition at 10 µM,[3],-8%
same,inhibition at 10 µM,Sigma σ1,0%
same,inhibition at 10 µM,Adrenergic α1D,-6%
same,inhibition at 10 µM,"Opiate µ (OP3, MOP)",1%
same,inhibition at 10 µM,Adenosine A3,0%
same,inhibition at 10 µM,Muscarinic M3,0%
same,inhibition at 10 µM,[4],-1%
same,alleviation of thermal insensitivity (tail immersion),[5]; CN016 5 mg/kg IP 1 h prior to paclitaxel 4.5 mg/kg,only moderately alleviated
same,alleviation of paclitaxel-induced thermhypesthesia (tail immersion),"[5]; CN016 10 or 20 mg/kg IP 1 h prior to paclitaxel 4.5 mg/kg, days 1, 3, 5, 7",able to alleviate
same,inhibition at 10 µM,Muscarinic M2,-1%
same,"Inhibition (%), Nicotinic Acetylcholine",Nicotinic Acetylcholine,-6%
same,inhibition at 10 µM,hERG [6],-3%
same,inhibition at 10 µM,Androgen (Testosterone),6%
same,"Inhibition (%), GABAA, Flunitrazepam, Central",[7],-5%
same,inhibition at 10 µM,"Opiate κ (OP2, KOP)",3%
same,motor coordination (rotarod test),C57BL/6 mice,neither paclitaxel treatment nor pretreated CN016 affected motor coordination
same,inhibition at 10 µM,Histamine H3,2%
same,"harmful effects, including heart rhythm, systolic blood pressure, and weight change",mice; 20 mg/kg,no harmful effects
same,heart rhythm variability,mice; [8],did not cause
same,systolic blood pressure fluctuations,mice; [8],did not cause
same,weight change,mice; [8],did not cause
same,inhibition at 10 µM,Muscarinic M1,5%
same,inhibition at 10 µM,Adenosine A2A,5%
